Test results as given in publication PMC8923076 (Cell chemical biology, 2021).

Chains of the proteins cited; added tags and fusions are not shown. Residues count along the entry.
UniProt O95619, whole entry: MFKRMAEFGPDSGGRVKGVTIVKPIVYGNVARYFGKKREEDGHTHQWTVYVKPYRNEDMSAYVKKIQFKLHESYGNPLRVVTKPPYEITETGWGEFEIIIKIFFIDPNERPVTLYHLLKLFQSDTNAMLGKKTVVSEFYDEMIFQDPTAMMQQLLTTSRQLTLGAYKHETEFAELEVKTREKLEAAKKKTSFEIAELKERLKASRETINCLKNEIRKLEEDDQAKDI
UniProt O95619, 1-148: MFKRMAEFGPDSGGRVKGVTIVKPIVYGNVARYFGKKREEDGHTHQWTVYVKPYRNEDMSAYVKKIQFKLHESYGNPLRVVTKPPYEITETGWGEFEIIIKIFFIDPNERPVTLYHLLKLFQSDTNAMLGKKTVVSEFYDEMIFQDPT

Experiments:
[1] = biological target: his6-tagged full-length GAS41 (Homo sapiens, UniProt O95619); assay: AlphaScreen competition assay with biotin-H3K23crK27cr peptide; format: binding; settings: read-out: IC50 AlphaScreen; 100 nM MOCR-his6-GAS41 full-length, 25 nM H3K23crK27cr-biotin; mean ± s.d., two experiments
[2] = biological target: GST-GAS41(1–148) YEATS domain (Homo sapiens, UniProt O95619); assay: Fluorescence polarization; format: binding; settings: read-out: IC50 FP; 1 μM GST-GAS41(1–148), 25 nM FAM-H3K23crK27cr; mean ± s.d., two experiments
[3] = biological target: GST-fused GAS41 YEATS domain (Homo sapiens, UniProt O95619); assay: FP direct binding of FAM-H3K23crK27cr; settings: read-out: KD (FP binding); binding to GST-fused GAS41 YEATS domain
[4] = biological target: T1, GST-fused GAS41 YEATS domain (residues 1-148) (human, UniProt O95619 1-148); assay: fluorescence polarisation
[5] = biological target: MOCR-his6-GAS41 (full-length) (human, UniProt O95619 1-227); assay: AlphaScreen or HTRF
[6] = biological target: T1, GST-fused GAS41 YEATS domain (residues …); assay: fluorescence polarisation; remark: listed apart in the source

| Molecule | IC50 [1] | IC50 [2] | IC50 [5] | also measured |
| --- | --- | --- | --- | --- |
| Ac-ATKAAR{K-Ac}SAP-NH2 [Compound H3K27ac] | 24 ± 8 µM | 243 ± 45 µM |  |  |
| Ac-GGKAPR{K-Ac}QLATKAAR{K-Ac}SAP-NH2 [Compound H3K18acK27ac] | 1.9 ± 0.2 µM | 50 ± 9 µM |  |  |
| Ac-RKSTGG{K-Ac}APRKQLATKAAR{K-Ac}SAP-NH2 [Compound H3K14acK27ac] | 1.4 ± 0.4 µM | 53 ± 3 µM |  |  |
| FAM-QLAT[K-cr]AAR[K-cr]SAPA-NH2 [FAM-H3K23crK27cr] |  |  |  | Kd [3]: 1.3 µM |
| QLATKAARKSAPA (N-terminal 6-fluorescein (FAM); crotonyl-lysine at K23 and K27; C-terminal amide) [FAM-H3K23crK27cr (fluorescein-labeled di-crotonylated histone H3 peptide)] |  |  |  | Kd [4]: 1.3 µM |
| ATKAARKSAP (N-terminal acetyl; acetyl-lysine at K27; C-terminal amide) [H3K27ac peptide] |  |  | 24 µM | IC50 [6]: 243 µM |
| RKSTGGKAPRKQLATKAARKSAP (N-terminal acetyl; acetyl-lysine at K14 and K27; C-terminal amide) [H3K14acK27ac peptide] |  |  | 1.4 µM | IC50 [6]: 53 µM |
| GGKAPRKQLATKAARKSAP (N-terminal acetyl; acetyl-lysine at K18 and K27; C-terminal amide) [H3K18acK27ac peptide] |  |  | 1.9 µM |  |
